Measured values reported in patent publication US20230250098A1 (priority 2021, published 2023).

Amino acid sequences for entries named in this document (tags omitted). A change or cut given only in a name is not applied to a line headed by its entry.
UniProt P33534: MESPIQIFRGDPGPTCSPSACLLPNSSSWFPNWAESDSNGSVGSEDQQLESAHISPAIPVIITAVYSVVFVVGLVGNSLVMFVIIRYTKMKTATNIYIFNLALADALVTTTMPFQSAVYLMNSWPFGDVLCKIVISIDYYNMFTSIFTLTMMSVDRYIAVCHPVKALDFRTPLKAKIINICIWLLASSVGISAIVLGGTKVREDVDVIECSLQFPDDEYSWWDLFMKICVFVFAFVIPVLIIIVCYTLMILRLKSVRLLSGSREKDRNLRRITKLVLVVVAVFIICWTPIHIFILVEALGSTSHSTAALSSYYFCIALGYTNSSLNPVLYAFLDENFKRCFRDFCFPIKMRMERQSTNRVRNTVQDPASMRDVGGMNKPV
UniProt P41145: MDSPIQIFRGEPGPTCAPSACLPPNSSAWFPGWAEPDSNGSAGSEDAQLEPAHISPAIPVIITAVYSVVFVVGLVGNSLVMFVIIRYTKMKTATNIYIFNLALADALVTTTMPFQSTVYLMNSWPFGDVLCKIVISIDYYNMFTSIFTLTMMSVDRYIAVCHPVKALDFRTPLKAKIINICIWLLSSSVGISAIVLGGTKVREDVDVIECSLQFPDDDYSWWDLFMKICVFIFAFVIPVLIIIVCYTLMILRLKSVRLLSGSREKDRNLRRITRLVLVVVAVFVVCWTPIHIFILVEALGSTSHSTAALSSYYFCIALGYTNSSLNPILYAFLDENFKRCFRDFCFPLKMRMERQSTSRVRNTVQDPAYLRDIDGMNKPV

What was measured:
[1] = biological target: FLAG-mouse κOP (Mus musculus, UniProt P33534); assay: GloSensor cAMP inhibition assay in transfected HEK cells; format: cell-based; conditions: efficacy normalized to positive control U50,488
[2] = biological target: κOP (Homo sapiens, UniProt P41145); assay: PathHunter β-arrestin2 recruitment assay; format: cell-based; conditions: normalized to positive control U50,488

CN(C(=O)Cc1ccc(Cl)c(Cl)c1)[C@@H]1CCCC[C@H]1N1CCCC1
cAMP α [1]: 100 | β-arrestin 2 α [2]: 100
